The values that follow come from patent US7923230 (Stanford University, dated 2011).

The assay deals with Amyloid beta (1-42). Description: cell-based or functional assay.

B1: FKBP12 pre-incubated with the bifunctional compound SLF-CR (SLF-Congo red) (enzyme)
chain: not shown
For B1, the “EC50 for preventing Aβ neurotoxicity, MTT assay on rat hippocampal neurons (drug concentration)” value was found to be 900 nM; the “IC50 in thioflavin T aggregation assay, fold lower than CR/FKBP” value was ~5 fold; the “IC50 of SLF-CR (with 1 uM FKBP) for delaying Aβ aggregation, turbidity / light scattering” value came to 430 nM.
